Results taken from ChEMBL document CHEMBL1136006, “New PET imaging agent for the serotonin transporter: [(18)F]ACF (2-[(2-amino-4-chloro-5-fluorophenyl)thio]-N,N-dimethyl-benzenmethanamine)” (J Med Chem, 2002).

Protein sequences, listed by entry. Tags and fused reporters are not part of them.
UniProt P31652, whole entry: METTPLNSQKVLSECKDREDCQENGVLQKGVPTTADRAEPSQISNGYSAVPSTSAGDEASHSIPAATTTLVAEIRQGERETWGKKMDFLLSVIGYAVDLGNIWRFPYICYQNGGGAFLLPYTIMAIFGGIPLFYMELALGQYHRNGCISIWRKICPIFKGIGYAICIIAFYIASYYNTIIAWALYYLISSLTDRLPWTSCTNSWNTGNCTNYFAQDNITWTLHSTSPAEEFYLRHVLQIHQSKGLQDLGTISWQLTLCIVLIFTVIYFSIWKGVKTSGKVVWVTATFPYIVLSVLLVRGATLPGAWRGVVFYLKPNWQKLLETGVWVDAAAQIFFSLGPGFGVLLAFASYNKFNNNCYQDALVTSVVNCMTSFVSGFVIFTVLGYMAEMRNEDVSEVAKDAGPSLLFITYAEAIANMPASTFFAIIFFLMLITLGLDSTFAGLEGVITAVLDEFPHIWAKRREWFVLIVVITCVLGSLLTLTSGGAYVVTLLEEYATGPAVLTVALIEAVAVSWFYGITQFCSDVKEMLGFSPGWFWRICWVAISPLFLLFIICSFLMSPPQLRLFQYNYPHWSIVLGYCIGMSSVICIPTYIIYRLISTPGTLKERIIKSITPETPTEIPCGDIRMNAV

Target: Sodium-dependent serotonin transporter (Rattus norvegicus, UniProt P31652)
Assay: Inhibition of 5-HT reuptake (SERT) in rat brain synaptosomes.
Format: subcellular

SMILES: [11CH3]Sc1ccc([C@@H]2CN3CCC[C@@H]3c3ccccc32)cc1
- Ki: 0.4 nM
